# Assay results from ChEMBL document CHEMBL4043279 (Bioorg Med Chem Lett, 2017).
# Tests used:
# HepG2 = assay: Antiproliferative activity against human HepG2 cells treated for 24 hrs measured after 72 hrs by MTT assay
# HL-60 = assay: Antiproliferative activity against human HL60 cells treated for 24 hrs measured after 72 hrs by MTT assay
# THP-1 = assay: Antiproliferative activity against human THP1 cells treated for 24 hrs measured after 72 hrs by MTT assay
# PC-3 = assay: Antiproliferative activity against human PC3 cells treated for 24 hrs measured after 72 hrs by MTT assay
smiles,measurement,setting,value
O=C(O)c1ccc(N(CCCl)CCCl)cc1,IC50,HepG2,> 100 µM
same,IC50,HL-60,12.3 µM
same,IC50,THP-1,8.56 µM
same,IC50,PC-3,63.5 µM
